Measured values taken from US20190345536A1, “DETECTION METHOD FOR CHROMOSOMAL ABNORMALITIES AND METHOD FOR EVALUATING INDUCIBILITY” (Sumitomo Chemical Company, Limited, priority 2016, published 2019).

System: human iPS cell-derived T lymphocyte
Experiment: Proliferation ability of human iPS cell-derived T lymphocyte by various proliferation stimulation factors (ATP amount, CellTiter-Glo; Comparative Example 1)
Assay type: cell-based

IL-2: cytokine used as proliferation stimulation factor (Wako)
luminescent signal (count) (100 U/mL IL-2, 66 hr, background subtracted): 11784 count
proliferation rate (100 U/mL IL-2, 66 hr, percentage of signal at seeding): 9.2%
proliferation of human iPS cell-derived T lymphocyte by proliferation stimulation (proliferation stimulation for 66 hr): does not proliferate
